Values quoted from earlier work, collected in paper PMC8679839, “Interleukin‐2‐inducible T‐cell kinase (Itk) signaling regulates potent noncanonical regulatory T cells” (Clinical and Translational Medicine, 2021).

Test system: ICOS‐expressing Tregs
Conditions: IL-2 therapy
Text: Published data have shown that ICOS‐deficient Tregs cannot suppress inflammation.[35] […] Our data provided evidence that inhibition of ITK increases ncTregs which express ICOS, and high expression of ICOS is pivotal for Treg function.[37]

IL‐2: IL‐2 therapy
effect on ICOS-expressing Tregs: significantly affects ICOS‐expressing Tregs
